From PubChem BioAssay AID1377 (University of Pittsburgh Molecular Library Screening Center, 2008)
This is a selection; strong and weak results do not stand in their true shares. Some of these compounds have results that are not shown, active ones among them. Activity calls are given as the source filed them.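 Rule for the calls: active = activation, scaled between plate controls, above about 75% (limit read from the data); inactive = activation under that limit.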

assay: inhibitors of zVAD-triggered necroptosis, primary screen, L929 cells (AID 1377); conditions: ATP luminescence, 24 h, at 10 µM, hits give high values; with zVAD 60 µM unless noted;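 note: 0% = zVAD with DMSO and 100% = DMSO alone without zVAD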

Row | SMILES | viability rescue
1 | CN(C)C1CCCC1OC(=O)C(O)(c1ccccc1)c1ccccc1 (stereo unspecified) | inactive: 0.66%
2 | Cc1ccccc1C(=O)NCC1(N2CCCCC2)CCCCC1 | inactive: -3.11%
3 | CCN1CCCC(OC(=O)C2(O)c3ccccc3C=Cc3ccccc32)C1 (stereo unspecified) | inactive: 0.67%
4 | C=CCN1CCN(CCOC(=O)C(O)(c2ccccc2)c2ccccc2)CC1 | inactive: -1.17%
5 | O=C(NCC1(N2CCCCC2)CCCCC1)c1cc([N+](=O)[O-])ccc1Cl | inactive: 20.7%
6 | CCN(CC)CC(C)C(C)OC(=O)C(O)(c1ccccc1)c1ccccc1 (stereo unspecified) | inactive: -0.51%
7 | CC(C)N1C(=O)CC2(CCN(CCOC(=O)C(O)(c3ccccc3)c3ccccc3)CC2)C1=O | inactive: 0.52% [with zVAD 20 µM]
8 | O=C(OC1CN2CCC1CC2)C(CO)(c1ccccc1)c1ccccc1 (stereo unspecified) | inactive: 0.02% [with zVAD 20 µM]
9 | CN(C)c1cccc(C(=O)NCC2(N(C)C)CCCCC2)c1 | inactive: 1.32% [with zVAD 20 µM]
10 | COc1ccc(Br)c(C(=O)NCC2(N3CCCCC3)CCCCC2)c1 | inactive: -0.91%
11 | COc1cccc(C(=O)NCC2(N3CCCCC3)CCCCC2)c1 | inactive: 0.69%
